Earlier results in patent US12527768B2, “Compositions comprising an anti-inflammatory drug and a dicer activator for use in the treatment of neuronal diseases” (NeuroSense Therapeutics Ltd., priority 2017, dated 2026).

Test system: ALS patients
Settings: clinical trial; cited from earlier work

Nc1nc2ccc(OC(F)(F)F)cc2s1 [Riluzole]
increase in survival in treated participants: 2-3 months
